# Assay results: US4186202A, “Phenyl-pyridylamine derivatives” (priority 1974, dated 1980)
# What was measured:
# [1] = test system: uptake of 3H-noradrenaline; assay: Inhibition of uptake of 3H-noradrenaline in mouse midbrain slices, in vitro; format: biochemical; settings: 5-HT versus noradrenaline uptake
# Experimental: (§1) It is not possible by experimental means to induce depressions in laboratory animals. In order to evaluate a possible anti-depressive effect of new substances biochemical-pharmacological test methods must be resorted to. One such method, which seems to give a good indication of the potential anti-depressive effects of the test substances, is described in Europ.
# (§2) The test substances were administered intraperitoneally half an hour before the animals were killed. […] The incubation time was 5 minutes with 5 minutes of preincubation before the labelled amines were added. The slices were dissolved in Soluene® and the amounts of radio-active amines taken up were determined by liquid scintillation. […] Active uptake is defined as that part of the radioactive uptake which is inhibited by a high concentration of cocaine.
# (§3) In the in vitro method, slices of mouse midbrain were preincubated for 5 minutes with a solution of the compound to be tested and then incubated as described above.
# [2] = test system: uptake of 14C-5-hydroxytryptamine; assay: Inhibition of uptake of 14C-5-HT in mouse midbrain slices after in vivo (i.p.) administration
# Experimental: as §1, §2
# [3] = test system: uptake of 14C-5-hydroxytryptamine; assay: Inhibition of uptake of 14C-5-HT in mouse midbrain slices, in vitro; format: biochemical; settings: tested as the hydrochloride
# Experimental: as §1, §2, §3
SMILES,selectivity of uptake inhibition [1],"inhibition of the uptake of 5-HT in vivo, compared with prior art compounds [2]","inhibition of the uptake of 5-HT in vitro, compared with prior art compounds [3]"
"CNC/C=C(\c1ccc(Br)cc1)c1cccnc1 [E-form of the compound of the invention, 3-(4-bromophenyl)-N-methyl-3-(3-pyridyl)-allylamine]",primarily inhibits the uptake of noradrenaline,–,–
"CNC/C=C(/c1ccc(Br)cc1)c1cccnc1 [Z-form of the compound of the invention, 3-(4-bromophenyl)-N-methyl-3-(3-pyridyl)-allylamine]",–,stronger inhibition of the uptake of 5-HT in vivo than do any of the prior art compounds tested,more potent inhibitor of the uptake of 5-HT in vitro than any of the prior art compounds
